## Yeast mating assay 2: variants of the scFv Ab-91

Antigen: PDVDLGDISGINAS, a 14-residue peptide of the SARS-CoV-2 spike HR2 region.

The variants keep the light chain, the linker and the frameworks of Ab-91 (scFv order VL, a (GGGGS)3 linker, VH).
VL: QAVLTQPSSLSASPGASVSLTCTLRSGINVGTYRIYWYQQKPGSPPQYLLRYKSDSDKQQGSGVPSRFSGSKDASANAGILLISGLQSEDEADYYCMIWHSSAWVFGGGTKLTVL
VH: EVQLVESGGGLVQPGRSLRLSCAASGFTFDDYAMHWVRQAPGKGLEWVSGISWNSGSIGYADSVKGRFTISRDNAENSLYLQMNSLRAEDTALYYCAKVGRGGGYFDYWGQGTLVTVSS

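The starting antibody came from a phage panning campaign against this peptide. AAYL51 was designed without a model: most single CDR substitutions and a random sample of double and triple ones. In AlphaSeq, yeast of one mating type display the scFv and yeast of the other type display the target. After mating in shaken culture at 30 °C for 16 h, diploids were selected and their barcode pairs sequenced. Read counts were normalised to the haploid input and turned into Kd by a linear fit to BCL2-family pairs of known affinity, for each replicate. The assay was run in three technical replicates.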

Changes read parent residue, position, new residue, counted from the first residue of the VH shown. Every variant below is changed at Y105 of the VH (sequential numbering). Values are apparent Kd, the geometric mean of the replicates that gave a signal; lower means stronger binding. A pair that was not seen in any replicate is written "no signal"; this usually means weak binding, but a binder can also be missed. Three control strains display no target. For library AAYL51, 21% of the pairings with them gave a signal, with a median of 34 µM and one signal in twenty below 1.8 µM, so weak values seen in few replicates may be background. For each scFv, signals with the empty controls are counted beside the result.

- F29P G50L Y105H -> 28 µM (1 of 3 replicates; controls 1 of 9)
- D31M Y105F Y108L -> 10 nM (3 of 3 replicates; controls 3 of 9)
- H35E N54I Y105R -> no signal (0 of 3 replicates; controls 2 of 9)
- Y32K Y105R F106E -> no signal (0 of 3 replicates; controls 0 of 9)
- F27T S57F Y105S -> 41 µM (1 of 3 replicates; controls 4 of 9)
- Y105H D107G -> no signal (0 of 3 replicates; controls 0 of 9)
- F27Q A61L Y105A -> no signal (0 of 3 replicates; controls 0 of 9)
- H35W Y105G -> 83 µM (3 of 3 replicates; controls 7 of 9)
- Y32V R101C Y105Q -> no signal (0 of 3 replicates; controls 1 of 9)
- F27N M34F Y105P -> 140 µM (1 of 3 replicates; controls 1 of 9)
- Y105H D107N Y108P -> 350 µM (2 of 3 replicates; controls 2 of 9)
- G56M Y105D F106I -> no signal (0 of 3 replicates; controls 0 of 9)
- Y105E -> 30 µM (1 of 3 replicates; controls 4 of 9)
- A33S Y105W -> 150 nM (3 of 3 replicates; controls 4 of 9)
- G50T Y105V D107G -> no signal (0 of 3 replicates; controls 1 of 9)
- I51C G56D Y105T -> 1.6 µM (1 of 3 replicates; controls 1 of 9)
- G59S G102Q Y105H -> no signal (0 of 3 replicates; controls 0 of 9)
- S63E Y105K Y108H -> 1.0 µM (1 of 3 replicates; controls 0 of 9)
- V99R Y105A Y108S -> no signal (0 of 3 replicates; controls 0 of 9)
- M34R N54F Y105S -> no signal (0 of 3 replicates; controls 1 of 9)
- N54L Y105I D107I -> no signal (0 of 3 replicates; controls 1 of 9)
- G50F N54W Y105P -> 29 µM (1 of 3 replicates; controls 1 of 9)
- D30L G59M Y105Q -> no signal (0 of 3 replicates; controls 0 of 9)
- S55N G56V Y105Q -> no signal (0 of 3 replicates; controls 0 of 9)
- V64I Y105K -> 45 µM (1 of 3 replicates; controls 2 of 9)
- D31C V64L Y105W -> 970 µM (2 of 3 replicates; controls 4 of 9)
- V99G Y105W -> 850 nM (3 of 3 replicates; controls 0 of 9)
- S52R G56R Y105F -> 19 µM (1 of 3 replicates; controls 1 of 9)
- S57Q Y105V Y108L -> 14 nM (3 of 3 replicates; controls 3 of 9)
- H35Y R101D Y105R -> no signal (0 of 3 replicates; controls 1 of 9)
- S55N G103T Y105E -> 19 µM (2 of 3 replicates; controls 4 of 9)
- D30C S52M Y105I -> 820 µM (1 of 3 replicates; controls 2 of 9)
- G56Y Y105H D107K -> 92 µM (2 of 3 replicates; controls 1 of 9)
- F27G M34L Y105M -> 50 µM (1 of 3 replicates; controls 3 of 9)
- S63E Y105E -> no signal (0 of 3 replicates; controls 2 of 9)
- Y32D G50D Y105T -> no signal (0 of 3 replicates; controls 0 of 9)
- G26D V99P Y105V -> 340 µM (1 of 3 replicates; controls 5 of 9)
- I51W Y105M Y108S -> 120 µM (1 of 3 replicates; controls 1 of 9)
- I58C Y105Q -> 84 nM (2 of 3 replicates; controls 0 of 9)
- F27M Y105F Y108C -> 5.3 µM (3 of 3 replicates; controls 8 of 9)
- F29T Y60P Y105G -> 4.0 µM (2 of 3 replicates; controls 2 of 9)
- F27R G103H Y105T -> 57 µM (2 of 3 replicates; controls 4 of 9)
- M34Y V99Y Y105G -> no signal (0 of 3 replicates; controls 1 of 9)

For reference, 4 entries of the list once more:

{"changes": "F27Q A61L Y105A", "apparent Kd": "no signal", "detected": "0 of 3", "signal with controls": "0 of 9"}
{"changes": "H35E N54I Y105R", "apparent Kd": "no signal", "detected": "0 of 3", "signal with controls": "2 of 9"}
{"changes": "Y32K Y105R F106E", "apparent Kd": "no signal", "detected": "0 of 3", "signal with controls": "0 of 9"}
{"changes": "F27N M34F Y105P", "apparent Kd": "140 µM", "detected": "1 of 3", "signal with controls": "1 of 9"}

Values reported by Engelhart et al. 2022, doi:10.1038/s41597-022-01779-4 (FLAb copy).